Results reported in patent publication US9050375B2, “Bi-specific digoxigenin binding antibodies” (priority 2009, dated 2015).
Like-named read-outs stand apart in the source and are kept apart here.

Test system: H322M cells
Assay: CytoTox-Glo assay of peptides and DIG-modified variants
Assay type: cell-based, human
Conditions: 48 hours
Description: To evaluate whether additions or alterations of the peptide Melittin, FALLv1 and FALLv2 by digoxygenin alters its biological activity, we performed in vitro assays. As these peptides are cytotoxic, their biological activity can easily be analyzed by monitoring the number of dead cells. To measure this number, the CytoTox-Glo assay (Promega Madison, Wis.) was used.
For these assays, H322M cells were seeded at a density of 15.000 cells per well in 96 well plates. The cells were incubated for 24 hours at 37° C., 5% CO2 and 85% humidity in RPMI with 10% FCS, Na+Pyrovate, L-Glutamine and NEAA mix. The peptide and it's DIG-modified variant were then added to the cells in the concentrations indicated. The cells were incubated for further 48 hours. After this period, the cells were treated with the CytoTox-Glo-assay reagent according to the manufacturers instructions. In brief, this assay detects dead cells via the presence of a protease in the medium that cleaves a fluorogenic peptide in the reagent. The luminescence of this assay therefore represents dead cells. The 96 well plates were then analyzed in a InfiniteF200 luminescence reader (Tecan Austria, Gröding).

Question: Which IC50 (read-out: IC50 value of the CytoTox-Glo assay) does the source give for `CC[C@H](C)[C@H](NC(=O)CN)C(=O)NCC(=O)N[C@@H](C)C(=O)N[C@H](C(=O)N[C@@H](CC(C)C)C(=O)N[C@@H](CCCCN)C(=O)N[C@H](C(=O)N[C@@H](CC(C)C)C(=O)N[C@H](C(=O)N[C@H](C(=O)NCC(=O)N[C@@H](CC(C)C)C(=O)N1CCC[C@H]1C(=O)N[C@@H](C)C(=O)N[C@@H](CC(C)C)C(=O)N[C@H](C(=O)N[C@@H](CO)C(=O)N[C@@H](Cc1c[nH]c2ccccc12)C(=O)N[C@H](C(=O)N[C@@H](CCCCN)C(=O)N[C@@H](CCCNC(=N)N)C(=O)N[C@@H](CCCCN)C(=O)N[C@@H](CCCNC(=N)N)C(=O)N[C@@H](CCC(N)=O)C(=O)N[C@@H](CCC(N)=O)C(N)=O)[C@@H](C)CC)[C@@H](C)CC)[C@@H](C)O)[C@@H](C)O)C(C)C)C(C)C` [Melittin] here?
Answer: The IC50 was 3.28 µM.

Question: And the IC50 (CytoTox-Glo, read-out: IC50 unmodified peptide)?
Answer: The IC50 was 3.3 µM.
